Measured values taken from patent publication US8940271B2, “Transmucosal administration of drug compositions for treating and preventing disorders in animals” (Abbott Laboratories, priority 2005, dated 2015).

Assay: Meloxicam solubility in various solvents
Type: physicochemical
Settings: solvents of Table 2

- dissolution upon addition of very small amounts of 1 M NaOH solution: completely dissolved
SMILES: Cc1cnc(NC(=O)C2=C(O)c3ccccc3S(=O)(=O)N2C)s1 [Meloxicam, 4-hydroxy-2-methyl-N-(5-methyl-2-thiazolyl)-2H-1,2-benzothiazine-3-carboxamide-1,1-dioxide]
